Measurements from PubChem BioAssay AID1987 (The Scripps Research Institute Molecular Screening Center, 2009).
Only a part is listed here, and it is no random draw. Activity calls are given as the source filed them.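 How the source made its calls: active means inhibition above the campaign's mean inhibition across all tested compounds plus 3 SD (cut at about 9.5% in these data); inactive means the rest.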

Protein sequences, listed by entry. Tags and fused reporters are not part of them.
UniProt P53041, whole entry: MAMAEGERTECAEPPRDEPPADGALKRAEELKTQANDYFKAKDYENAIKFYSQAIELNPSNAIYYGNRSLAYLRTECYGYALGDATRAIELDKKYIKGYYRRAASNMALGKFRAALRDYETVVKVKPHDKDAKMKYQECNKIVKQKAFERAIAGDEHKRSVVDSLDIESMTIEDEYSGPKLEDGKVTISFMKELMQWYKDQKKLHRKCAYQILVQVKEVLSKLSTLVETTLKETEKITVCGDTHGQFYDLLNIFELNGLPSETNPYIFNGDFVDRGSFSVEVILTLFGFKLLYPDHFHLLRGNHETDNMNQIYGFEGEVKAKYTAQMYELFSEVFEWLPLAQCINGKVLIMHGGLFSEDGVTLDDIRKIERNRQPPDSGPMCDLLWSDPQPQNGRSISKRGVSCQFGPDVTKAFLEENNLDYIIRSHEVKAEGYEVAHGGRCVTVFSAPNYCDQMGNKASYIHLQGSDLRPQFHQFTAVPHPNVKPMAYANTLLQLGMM

These compounds were tested against Serine/threonine-protein phosphatase 5 (Homo sapiens) (UniProt P53041) (assay: inhibition of human PP5 catalytic activity – biochemical, fluorescence, primary screen (AID 1987;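 further: 0% = DMSO only and 100% = 100 µM cantharidin control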)). Settings: purified PP5c, OMFP substrate fluorescence; at 6.7 µM; active compounds read high.

| Compound | inhibition |
| --- | --- |
| CCN1CCC(Nc2cccc(F)c2)CC1 | inactive: 0.3% |
| CN(C)c1ccc(C(=O)NCC2(N3CCCCC3)CCCCC2)cc1 | inactive: -3.55% |
| O=C(NCC1(N2CCCCC2)CCCCC1)c1ccco1 | inactive: 2.58% |
| COc1cc(OC)cc(C(=O)NCC2(N3CCCCC3)CCCCC2)c1 | inactive: -1.86% |
| Fc1ccccc1NC1CCN(Cc2ccccc2)CC1 | inactive: 2.35% |
| Cc1ccc(C(=O)NCC2(N3CCCCC3)CCCCC2)o1 | inactive: -1.25% |
| CCC(CO)(C(=O)OC1CN2CCC1CC2)c1ccccc1 (stereo unspecified) | inactive: -2.42% |
| COc1cc(OC)cc(C(=O)NCC2(N3CCOCC3)CCCCC2)c1 | inactive: 1.67% |
| COc1cccc(C(=O)N(c2cc(C)cc(C)c2)C2CCN(C(=O)OC(C)(C)C)CC2)c1 | inactive: 5.88% |
| CCCOc1ccc(C)cc1CN(CCCl)CCCl | inactive: 1.57% |
| CN1CCC(Nc2ccc(Cl)cc2)CC1 | inactive: 0.12% |
| CN1CCC(Nc2ccc(F)c(Cl)c2)CC1 | inactive: 4.29% |
| CCOc1ncccc1C(=O)NCC1(N2CCOCC2)CCCCC1 | inactive: -1.34% |
| CCCOc1ccc(C(=O)NCC2(N(C)C)CCCCC2)cc1 | inactive: 2.77% |
| O=C(O)C1(Nc2ccccc2)CCN(Cc2ccccc2)CC1 | inactive: -2.18% |
| CC(C)(C)OC(=O)N1CCC(Nc2ccccc2)CC1 | inactive: 1.33% |
| N/C(=N\O)c1c(N)no[n+]1[O-] | inactive: -0.26% |
| CCOC(=O)N1CCC(Nc2ccc(C)cc2)CC1 | inactive: 1.43% |
| O=C(OC1CN2CCC1CC2)C1c2ccccc2C=Cc2ccccc21 (stereo unspecified) | inactive: 1.46% |
| CCc1cc(C(=O)NCC2(N3CCCCC3)CCCCC2)sc1C | inactive: -1.88% |
| O=C(NCC1(N2CCOCC2)CCCCC1)c1cc(Br)ccc1Cl | inactive: 2.56% |

| Compound | inhibition |
| --- | --- |
| COc1ccc(C(=O)NCC2(N3CCOCC3)CCCCC2)cc1OC | inactive: 2.42% |
| CCCN1CCC(Nc2cc(OC)cc(OC)c2)CC1 | inactive: 0.2% |
| c1ccc(CN2CCC(Nc3ccccc3)CC2)cc1 | inactive: -1.25% |
| CN(C)C1(CNC(=O)c2cccc(C#N)c2)CCCCC1 | inactive: -1.67% |
| CC(C)(C)OC(=O)N1CCC(N(C(=O)c2ccccc2)c2ccc(Cl)cc2)CC1 | inactive: 0.08% |
| N#Cc1ccc(C(=O)NCC2(N3CCCCC3)CCCCC2)cc1 | inactive: 0.22% |
| O=C(NCC1(N2CCCCC2)CCCCC1)c1cccc(C(F)(F)F)c1 | inactive: 0.33% |
| CN1CCN(CCOC(=O)C(O)(c2ccccc2)c2ccccc2)CC1 | inactive: 2.22% |
| COc1ccc(NC2CCN(C(=O)OC(C)(C)C)CC2)cc1 | inactive: -2.11% |
| COc1cc(C(=O)NCC2(N3CCCCC3)CCCCC2)ccc1OC(F)F | inactive: 1.14% |
| O=C(NCC1(N2CCOCC2)CCCCC1)c1cc(=O)[nH]c2ccccc12 | inactive: -6.58% |
| O=C(NCC1(N2CCCCC2)CCCCC1)c1ccc(OC(F)F)cc1 | inactive: 2.57% |
| O=C(NCC1(N2CCCCC2)CCCCC1)c1cccc([N+](=O)[O-])c1 | inactive: -2.23% |
| N#CC1(Nc2ccccc2)CCN(CCc2ccccc2)CC1 | inactive: 2.39% |
| CCN1CCC(Nc2ccc(Cl)cc2)CC1 | inactive: -1.98% |
| O=C(NCC1(N2CCCCC2)CCCCC1)c1cncc(Br)c1 | inactive: -1.94% |
| CN1CCC(Nc2cccc(F)c2)CC1 | inactive: 2.16% |
| CN(C)c1cccc(C(=O)NCC2(N3CCCCC3)CCCCC2)c1 | inactive: 0.8% |
| COc1ccc(CN(CCCl)CCCl)cc1Cl | inactive: 2.3% |
| CC(C)c1ccc(NC2CCN(C(=O)OC(C)(C)C)CC2)cc1 | inactive: -0.28% |
| COc1cc(OC)c(C(=O)NCC2(N(C)C)CCCCC2)cc1OC | inactive: 1.53% |

| Compound | inhibition |
| --- | --- |
| O=C(NCC1(N2CCOCC2)CCCCC1)c1cc2ccccc2o1 | inactive: 3.03% |
| Cc1cc(C)cc(N(C(=O)c2ccccc2)C2CCN(C(=O)OC(C)(C)C)CC2)c1 | inactive: 2.66% |
| O=C(NCC1(N2CCCCC2)CCCCC1)c1ccc(Cl)nc1 | inactive: -0.4% |
| CCOC(=O)N1CCC(Nc2ccc(OC)cc2)CC1 | inactive: 2.34% |
| COc1ccc(Cl)cc1C(=O)NCC1(N2CCOCC2)CCCCC1 | inactive: 1.74% |
| O=C(OC1CN2CCC1CC2)C1c2ccccc2Oc2ccccc21 (stereo unspecified) | inactive: 3.74% |
| O=C(NCC1(N2CCCCC2)CCCCC1)c1ccc(Cl)s1 | inactive: 1.4% |
| N#CC1(Nc2ccccc2)CCN(Cc2ccccc2)CC1 | inactive: -1.77% |
| O=C(NCC1(N2CCCCC2)CCCCC1)c1cccs1 | inactive: -1.73% |
| O=C(NCC1(N2CCCCC2)CCCCC1)c1ccc(=O)[nH]c1 | inactive: 1.6% |
| COc1ccc(C(=O)NCC2(N3CCCCC3)CCCCC2)c(OC)c1OC | inactive: 2.64% |
| CC(C)(C)OC(=O)N1CCC(N(C(=O)c2ccccc2)c2ccc(F)cc2)CC1 | inactive: 1.77% |
| COc1ccc(C(=O)NCC2(N3CCCCC3)CCCCC2)cc1 | inactive: 1.33% |
| CSc1ccccc1C(=O)NCC1(N2CCCCC2)CCCCC1 | inactive: 0.49% |
| Cc1ccc(OCC(C)C)c(CN(CCCl)CCCl)c1 | inactive: -0.83% |
| CCOC(=O)N1CCC(Nc2cccc(C)c2)CC1 | inactive: 1.41% |
| CCOc1ccc(C)cc1CN(CCCl)CCCl | inactive: 2.67% |
| COc1ccc(NC2CCN(CCc3ccccc3)CC2)c(OC)c1 | inactive: 2.7% |
| O=C(NCC1(N2CCCCC2)CCCCC1)c1ccc(F)cc1 | inactive: 1.1% |
